The record followed here is PMC11882778.

One may read the stoichiometry N as the number of molecules, sites or subunits per partner or assembly.

This assay has as its target human phosphatidylserine synthase 1 (human) (UniProt P48651). The assay can be described thus: cryo-EM structure; purified PSS1 in detergent micelles (GDN); apo, Ca2+-bound and Ca2+/L-serine-bound states; homodimer.

Regarding “human phosphatidylserine synthase 1 (from UniProt P48651 1-473) (enzyme)”, the stoichiometry N stood at 2.
